Laboratory results taken from patent US9617300B2, “Dipeptidyl peptidase-IV inhibitor” (MORINAGA MILK INDUSTRY CO., LTD, priority 2012, dated 2017).

Sequences of proteins named here, by UniProt entry; tags and fusion partners are left off.
UniProt P27487, whole entry: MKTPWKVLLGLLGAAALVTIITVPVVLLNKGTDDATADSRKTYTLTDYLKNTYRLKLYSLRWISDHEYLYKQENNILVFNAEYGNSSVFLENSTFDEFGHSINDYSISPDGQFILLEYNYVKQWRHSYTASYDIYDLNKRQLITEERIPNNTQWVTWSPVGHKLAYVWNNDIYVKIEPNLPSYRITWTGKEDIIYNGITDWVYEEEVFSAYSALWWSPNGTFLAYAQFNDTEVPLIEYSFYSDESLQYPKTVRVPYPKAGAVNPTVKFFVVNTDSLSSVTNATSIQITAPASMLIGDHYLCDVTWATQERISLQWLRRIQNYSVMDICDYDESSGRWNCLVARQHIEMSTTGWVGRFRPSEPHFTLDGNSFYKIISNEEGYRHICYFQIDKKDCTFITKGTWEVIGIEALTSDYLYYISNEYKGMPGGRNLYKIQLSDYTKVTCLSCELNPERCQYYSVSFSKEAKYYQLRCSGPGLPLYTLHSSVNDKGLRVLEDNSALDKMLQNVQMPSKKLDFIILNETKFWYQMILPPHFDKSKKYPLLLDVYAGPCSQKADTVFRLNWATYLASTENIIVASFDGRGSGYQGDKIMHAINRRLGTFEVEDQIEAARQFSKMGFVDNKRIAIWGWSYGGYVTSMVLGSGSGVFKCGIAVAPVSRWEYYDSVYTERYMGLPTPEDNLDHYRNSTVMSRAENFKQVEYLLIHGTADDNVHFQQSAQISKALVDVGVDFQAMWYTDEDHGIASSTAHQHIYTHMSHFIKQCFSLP

Biological target: T1, Recombinant Human DPPIV/CD26 (Homo sapiens, UniProt P27487)
T1 construct: purchased R&D Systems, Inc
Assay: Dipeptidyl peptidase-IV (DPP-4) inhibiting activity, fluorescent substrate H-Gly-Pro-AMC
Type: biochemical
Conditions: chemically synthesized peptides of Production Example 2; read-out: Test Example 1: DPP-4 inhibiting activity IC50 (converted)
Experimental: <Method for Measuring Dipeptidyl Peptidase-IV Inhibiting Activity>
The measurement of the dipeptidyl peptidase-IV (DPP-4) inhibition was conducted in accordance with the method by Kato et al (Kato, T. et al. Biochem. Med. 19, p 351, 1978).
Typically, the enzymatic reaction was conducted using Recombinant Human DPPIV/CD26 (R&D Systems, Inc.) as an enzyme (DPP-4) and H-Gly-Pro-AMC (Biomol GmbH) as a substrate.
To each well of a 96-well microplate (nunc 137101), water or an aqueous solution of the test substance at each concentration or a HPLC fraction was added, and then 20 μl of Tris-HCl (0.25M, pH 8.0) was added to make the entire volume 80 μl. After stirring, the plate was warmed for about 10 minutes in an incubator at 37° C., and 10 μl of the DPP-4 solution and 10 μl of the substrate solution were added (a total volume of 100 μl), and stirred to initiate the reaction. The well receiving water instead of the enzyme was used as a control.
The enzymatic reaction was measured using a microplate reader (SH-9000, Corona Electric Co., Ltd), and the measurement was conducted under the condition which kept the temperature in the chamber at 37° C. (5-minute intervals, ex360 nm/em460 nm).
From the fluorescent intensity value during the time period during which the fluorescent intensity was increased linearly (within 30 minutes after initiation of the reaction), the inhibiting activity was calculated using the following equation. As a positive control, Vildagliptin (JS Research Chemicals Trading) was employed. Inhibition ratio (%)=100%−[(Y−b)/(X−a)]×100% • X: Water+Enzyme+Substrate • Y: Test substance+Enzyme+Substrate • a: Water+Substrate • b: Test substance+Substrate
<Method for Obtaining IC50>
The test substance was diluted serially to several concentrations (10 to 2000 μg/ml), whose inhibition ratio was obtained. […] Then from this equation of the relationship, the concentration allowing the enzyme inhibition ratio to be 50% was calculated reversely, thereby calculating the IC50.

SMILES | IC50 [µM]
CC(C)[C@H](N)C(=O)N1CCC[C@H]1C(=O)N[C@@H](CCC(N)=O)C(=O)O [VPQ, Val-Pro-Gln] | 7.59
CC(C)[C@H](N)C(=O)N1CCC[C@H]1C(=O)N[C@@H](Cc1ccc(O)cc1)C(=O)O [VPY, Val-Pro-Tyr] | 18.9
CC(C)[C@H](N)C(=O)N1CCC[C@H]1C(=O)N[C@@H](CC(N)=O)C(=O)O [VPN, Val-Pro-Asn] | 17.4
CC[C@H](C)[C@H](N)C(=O)N1CCC[C@H]1C(=O)N1CCC[C@H]1C(=O)O [IPP, Ile-Pro-Pro, reference compound] | 4120
CC(C)[C@H](N)C(=O)N1CCC[C@H]1C(=O)N[C@@H](CO)C(=O)O [VPS, Val-Pro-Ser] | 17.2
CC(C)[C@H](N)C(=O)N1CCC[C@H]1C(=O)N[C@@H](CCCCN)C(=O)O [VPK, Val-Pro-Lys] | 30.4
CC(C)[C@H](N)C(=O)N1CCC[C@H]1C(=O)N[C@H](C(=O)O)C(C)C [VPV, Val-Pro-Val] | 3.19
CC(C)C[C@H](N)C(=O)N[C@@H](Cc1ccc(O)cc1)C(=O)O [LY, reference compound] | 1650

Further lines, results first:

IC50 [µM] | SMILES
> 6420 | CC(C)[C@H](N)C(=O)N1CCC[C@H]1C(=O)N1CCC[C@H]1C(=O)O [VPP, Val-Pro-Pro, reference compound]
12.5 | CC(C)[C@H](N)C(=O)N1CCC[C@H]1C(=O)NCC(=O)O [VPG, Val-Pro-Gly]

Same assay, conditions: values given in running text (HPLC fraction, synthetic peptide, commercial casein degradation products); read-out: concentration for 50% inhibition of the dipeptidyl peptidase-IV (converted)

IC50 [µM] | SMILES
6.66 | CC(C)[C@H](N)C(=O)N1CCC[C@H]1C(=O)N[C@@H](C)C(=O)O [VPA, Val-Pro-Ala]
